Source: ChEMBL document CHEMBL2424619, “Small-molecule ligands of methyl-lysine binding proteins: optimization of selectivity for L3MBTL3” (J Med Chem, 2013)

The chains behind the UniProt entries cited, without tags or fusion partners.
UniProt Q05BQ5, whole entry: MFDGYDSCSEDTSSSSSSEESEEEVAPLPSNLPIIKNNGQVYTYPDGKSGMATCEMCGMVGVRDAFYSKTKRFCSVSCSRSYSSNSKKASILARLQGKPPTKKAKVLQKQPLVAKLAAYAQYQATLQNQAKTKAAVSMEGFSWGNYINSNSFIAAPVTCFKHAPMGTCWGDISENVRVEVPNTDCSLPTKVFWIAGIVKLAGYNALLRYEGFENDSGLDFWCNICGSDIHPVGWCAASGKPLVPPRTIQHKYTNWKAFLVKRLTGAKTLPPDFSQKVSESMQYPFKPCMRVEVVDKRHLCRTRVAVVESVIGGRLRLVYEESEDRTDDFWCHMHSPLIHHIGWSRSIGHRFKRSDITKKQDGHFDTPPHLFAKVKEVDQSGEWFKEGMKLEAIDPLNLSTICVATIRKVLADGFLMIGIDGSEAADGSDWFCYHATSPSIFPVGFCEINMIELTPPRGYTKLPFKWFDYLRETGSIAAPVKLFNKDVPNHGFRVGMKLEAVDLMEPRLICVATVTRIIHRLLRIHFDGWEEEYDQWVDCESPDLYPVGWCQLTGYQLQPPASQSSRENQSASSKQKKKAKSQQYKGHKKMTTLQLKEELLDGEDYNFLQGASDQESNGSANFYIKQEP

Columns and labels:
[1] = biological target: T1, Lethal(3)malignant brain tumor-like protein 3 (Homo sapiens, UniProt Q96JM7); experiment: Inhibition of L3MBTL3 (unknown origin) after 30 mins by AlphaScreen assay
T1 sequence (Q96JM7 whole entry): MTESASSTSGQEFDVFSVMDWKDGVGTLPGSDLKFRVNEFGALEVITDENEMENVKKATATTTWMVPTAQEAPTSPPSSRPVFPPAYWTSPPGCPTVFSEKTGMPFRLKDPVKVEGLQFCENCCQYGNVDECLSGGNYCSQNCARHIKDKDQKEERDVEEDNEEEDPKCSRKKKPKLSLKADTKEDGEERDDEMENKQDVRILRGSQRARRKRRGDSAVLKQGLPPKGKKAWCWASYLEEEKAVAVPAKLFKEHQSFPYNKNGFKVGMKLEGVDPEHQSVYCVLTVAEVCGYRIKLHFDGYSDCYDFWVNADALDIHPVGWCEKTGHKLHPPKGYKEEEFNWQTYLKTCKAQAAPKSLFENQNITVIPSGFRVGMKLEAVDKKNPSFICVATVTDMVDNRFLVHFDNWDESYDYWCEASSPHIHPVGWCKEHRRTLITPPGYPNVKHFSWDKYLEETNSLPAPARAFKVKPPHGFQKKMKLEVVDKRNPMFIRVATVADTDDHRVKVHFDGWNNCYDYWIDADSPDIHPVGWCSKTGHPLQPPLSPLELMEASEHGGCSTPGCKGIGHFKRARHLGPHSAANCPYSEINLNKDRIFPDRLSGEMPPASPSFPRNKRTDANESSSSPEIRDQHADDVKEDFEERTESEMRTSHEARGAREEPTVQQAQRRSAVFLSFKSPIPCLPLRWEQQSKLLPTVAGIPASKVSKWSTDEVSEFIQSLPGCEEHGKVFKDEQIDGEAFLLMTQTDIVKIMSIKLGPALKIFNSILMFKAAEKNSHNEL

[2] = biological target: T2, Chromobox protein homolog 7 (Homo sapiens, UniProt O95931); experiment: Inhibition of CBX7 (unknown origin) after 30 mins by AlphaScreen assay
T2 sequence (O95931 whole entry): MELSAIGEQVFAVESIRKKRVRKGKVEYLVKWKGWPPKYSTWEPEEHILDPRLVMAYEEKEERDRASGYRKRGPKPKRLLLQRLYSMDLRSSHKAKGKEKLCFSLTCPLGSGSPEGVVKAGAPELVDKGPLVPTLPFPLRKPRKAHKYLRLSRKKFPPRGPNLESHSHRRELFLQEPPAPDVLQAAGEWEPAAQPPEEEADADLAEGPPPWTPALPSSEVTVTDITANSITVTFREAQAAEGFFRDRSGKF

[3] = biological target: T3, Lethal(3)malignant brain tumor-like protein 4 (Homo sapiens, UniProt Q8NA19); experiment: Inhibition of L3MBTL4 (unknown origin) after 30 mins by AlphaScreen assay
T3 sequence (Q8NA19 whole entry): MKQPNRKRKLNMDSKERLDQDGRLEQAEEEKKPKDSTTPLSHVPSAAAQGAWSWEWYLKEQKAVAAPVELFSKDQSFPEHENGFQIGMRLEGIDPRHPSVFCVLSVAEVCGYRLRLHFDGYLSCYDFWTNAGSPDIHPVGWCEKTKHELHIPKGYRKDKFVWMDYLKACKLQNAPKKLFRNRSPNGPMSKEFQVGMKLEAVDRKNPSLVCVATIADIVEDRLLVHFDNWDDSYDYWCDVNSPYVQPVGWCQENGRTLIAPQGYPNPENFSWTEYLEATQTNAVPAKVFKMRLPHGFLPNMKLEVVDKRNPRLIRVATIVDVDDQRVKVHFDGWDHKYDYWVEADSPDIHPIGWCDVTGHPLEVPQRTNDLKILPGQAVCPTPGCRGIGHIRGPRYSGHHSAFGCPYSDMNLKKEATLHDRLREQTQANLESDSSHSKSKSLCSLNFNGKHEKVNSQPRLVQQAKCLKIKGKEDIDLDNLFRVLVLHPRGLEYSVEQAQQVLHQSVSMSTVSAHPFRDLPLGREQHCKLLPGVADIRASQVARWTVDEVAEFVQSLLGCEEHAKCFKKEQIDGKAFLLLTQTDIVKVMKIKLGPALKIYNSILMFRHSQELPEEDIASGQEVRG

[4] = biological target: MBT domain-containing protein 1 (Homo sapiens, UniProt Q05BQ5); experiment: Inhibition of MBTD1 (unknown origin) after 30 mins by AlphaScreen assay

Row | SMILES | IC50 [1] | IC50 [2] | IC50 [3] | IC50 [4]
1 | O=C(c1cccc(Br)c1)N1CCC(C2CCCN2)CC1 (centres undefined) | > 30 µM | – | – | –
2 | O=C(c1ccc(C(=O)N2CCN(C3CCCC3)CC2)cc1)N1CCC(N2CCCC2)CC1 | – | > 10 µM | > 10 µM | > 10 µM
